Reference: PubChem BioAssay AID504634 (The Scripps Research Institute Molecular Screening Center, 2011)
The entries are a selection whose mix differs from that of the whole data set. The source made the active and inactive calls. Rule as the data show it: active = inhibition mostly above about 23% (no sharp cut-off); inactive = mostly below about 18%.

By UniProt entry, the sequences of proteins in these tests, tags left out.
UniProt P47898, whole entry, looked up: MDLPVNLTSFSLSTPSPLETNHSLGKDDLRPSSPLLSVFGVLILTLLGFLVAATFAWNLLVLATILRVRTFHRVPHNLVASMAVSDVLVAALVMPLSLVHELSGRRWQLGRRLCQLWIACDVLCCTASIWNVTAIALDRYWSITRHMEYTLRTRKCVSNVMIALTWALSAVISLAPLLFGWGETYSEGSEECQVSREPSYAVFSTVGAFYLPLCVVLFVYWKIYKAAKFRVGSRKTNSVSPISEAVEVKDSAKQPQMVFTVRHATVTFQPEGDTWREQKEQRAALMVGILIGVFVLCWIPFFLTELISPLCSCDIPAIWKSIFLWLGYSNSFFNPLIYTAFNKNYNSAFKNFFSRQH

target: 5-hydroxytryptamine receptor 5A (Homo sapiens) (UniProt P47898); assay: HTR5A inverse agonists in luminescence cell assay, primary screen, counter-screen for OPRM1-OPRD1 heterodimer inverse agonist project, full-deck HTS (AID 504634); settings: HTR5A cell line, inverse agonism, at 9.3 µM, hits give high values;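 also: 0% = cells with DMSO and 100% = no-cell wells with DMSO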

**Q.** `CC(=O)N1C2C3N(C(C)=O)C1C1N(C(C)=O)C(C(N1C(C)=O)N3C(C)=O)N2C(C)=O` was tested. Which inhibition did it give?
**A.** inactive: -7.99%

**Q.** For `CC#CCCC(=O)N1C=Cc2ccccc2C1C#N` (stereo not given), which inhibition is on record?
**A.** inactive: -1.77%

**Q.** How did the inhibition turn out when `O=[N+]([O-])c1cccc2n[nH]nc12` was run?
**A.** inactive: -0.81%

**Q.** With `N=c1n(CCN2CCCCC2)c2ccccc2n1CC(O)c1ccco1` (stereo not given) as the compound, how does the inhibition read?
**A.** inactive: -10.7%

**Q.** How did the inhibition turn out when `O=C(Cn1c(NCCO)nc2ccccc21)N1CCN(Cc2ccccc2)CC1` was run?
**A.** inactive: 7.69%

**Q.** Which inhibition does the source give for `Cn1c(=O)c2c(ncn2CC(=O)Nc2ccccc2)n(C)c1=O` here?
**A.** inactive: 30.3%

**Q.** How did the inhibition turn out when `Nc1ccccc1CNc1nc(NCCO)nc2c1ncn2CCN1CCOCC1` was run?
**A.** inactive: -0.99%

**Q.** Which inhibition does the source give for `NC(=O)CC(NC(=O)c1ccccc1)c1ccc(NC2CCN(Cc3ccccc3)CC2)c([N+](=O)[O-])c1` (stereo not given) here?
**A.** inactive: -42.1%

**Q.** With `N#CCC(=O)N/N=C\c1cc(Br)ccc1OC/C=C/c1ccccc1` as the compound, how does the inhibition read?
**A.** inactive: 24.3%

**Q.** `Cc1ccc2c(c1)C1CN(C)CCC1N2S(=O)(=O)c1ccc(Oc2ccc([N+](=O)[O-])cc2)cc1` (stereo not given) was tested. Which inhibition did it give?
**A.** inactive: 17.1%

**Q.** For `Cc1ccc(SCc2nc3ccccc3n2CC(=O)Nc2ccccc2)cc1`, which inhibition is on record?
**A.** inactive: 0.35%

**Q.** With `COc1cc(NC(=O)Cn2cnc3c(SC)nc(N)nc32)cc(OC)c1OC` as the compound, how does the inhibition read?
**A.** inactive: 7.74%

**Q.** With `Cc1cc(NC(=O)CSc2nc3ccccc3n2CC(=O)N2CC(C)CC(C)C2)no1` (stereo not given) as the compound, how does the inhibition read?
**A.** inactive: 5.79%

**Q.** `Cn1c(=O)c2c(nc(Cl)n2CC(=O)NC2(C#N)CCCCC2)n(C)c1=O` was tested. Which inhibition did it give?
**A.** inactive: -14.5%

**Q.** `CSc1nc(N)nc2c1ncn2CC(=O)NCCCc1ccccc1` was tested. Which inhibition did it give?
**A.** inactive: -12.1%

**Q.** How did the inhibition turn out when `c1ccc(CN2CCC3(CC2)Nc2ccccc2CO3)cc1` was run?
**A.** inactive: -3.38%

**Q.** For `CCOC(=O)CSc1nc2ccccc2n1CC(=O)N1CCN(c2ccccc2)CC1`, which inhibition is on record?
**A.** inactive: 18.7%

**Q.** With `Cn1c(=O)c2c(ncn2CC(=O)N2CCN(c3ccccc3F)CC2)n(C)c1=O` as the compound, how does the inhibition read?
**A.** inactive: -8.84%

**Q.** With `COc1ccc(C2=NCC(CBr)S2)cc1` (stereo not given) as the compound, how does the inhibition read?
**A.** inactive: 7.7%

**Q.** `CCN(CC)CCn1c(=N)n(CCO)c2ccccc21` was tested. Which inhibition did it give?
**A.** inactive: -2.4%

**Q.** Which inhibition does the source give for `Cn1c(=O)c2c(ncn2CC(=O)N/N=C/c2ccco2)n(C)c1=O` here?
**A.** inactive: -27.5%

**Q.** For `CC(=O)N1CCc2cc(S(=O)(=O)NC(CC(C)C)C(=O)N3CCn4c3nc3ccccc34)ccc21` (stereo not given), which inhibition is on record?
**A.** inactive: 8.46%

**Q.** For `CCC(=O)Nc1cccc(C(=O)/C=C/c2cccs2)c1`, which inhibition is on record?
**A.** inactive: -2.8%

**Q.** For `CCC(C)[C@H](NC(=O)N1CCn2c1nc1ccccc12)C(=O)NCCc1ccccc1` (stereo not given in full), which inhibition is on record?
**A.** inactive: -12.1%

**Q.** `C[C@H](O)[C@@H]1C(=O)N2CCc3ccc(-c4ccccc4)cc3[C@@H]2C[C@@H]1N(C)C(=O)Nc1cc(Cl)cc(Cl)c1` was tested. Which inhibition did it give?
**A.** inactive: -22.5%
